Measurements: PubChem BioAssay AID1987 (The Scripps Research Institute Molecular Screening Center, 2009)
The list shows a part of the results, in another mix than the full data. The source made the active and inactive calls.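 The calls were made as follows: active = inhibition above the campaign's mean inhibition across all tested compounds plus 3 SD (cut at about 9.5% in these data); inactive = the rest.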

Amino acid sequences for entries named in this document (tags omitted).
UniProt P53041, whole entry: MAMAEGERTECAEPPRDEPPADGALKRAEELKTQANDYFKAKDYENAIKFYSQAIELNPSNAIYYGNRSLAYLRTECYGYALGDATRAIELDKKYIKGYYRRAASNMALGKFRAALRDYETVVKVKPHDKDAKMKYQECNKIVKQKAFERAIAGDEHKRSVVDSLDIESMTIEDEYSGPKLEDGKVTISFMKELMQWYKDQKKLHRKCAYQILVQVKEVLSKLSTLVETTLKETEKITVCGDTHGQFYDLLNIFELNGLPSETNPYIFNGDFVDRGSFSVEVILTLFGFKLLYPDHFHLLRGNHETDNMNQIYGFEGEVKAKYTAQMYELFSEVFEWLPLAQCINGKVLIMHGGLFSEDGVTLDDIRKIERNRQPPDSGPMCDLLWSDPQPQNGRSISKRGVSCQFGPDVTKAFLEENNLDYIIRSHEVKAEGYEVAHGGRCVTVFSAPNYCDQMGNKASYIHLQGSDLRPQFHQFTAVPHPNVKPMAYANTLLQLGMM

target: Serine/threonine-protein phosphatase 5 (Homo sapiens) (UniProt P53041); assay: PP5 phosphatase inhibitors, primary screen, biochemical, fluorescence (AID 1987); conditions: purified PP5c, OMFP substrate fluorescence; at 6.7 µM; active compounds read high;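 also: 0% = DMSO only and 100% = 100 µM cantharidin control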

SMILES | inhibition
CCN1CCC(Nc2cccc(F)c2)CC1 | inactive: 0.3%
CN(C)c1ccc(C(=O)NCC2(N3CCCCC3)CCCCC2)cc1 | inactive: -3.55%
O=C(NCC1(N2CCCCC2)CCCCC1)c1ccco1 | inactive: 2.58%
COc1cc(OC)cc(C(=O)NCC2(N3CCCCC3)CCCCC2)c1 | inactive: -1.86%
Fc1ccccc1NC1CCN(Cc2ccccc2)CC1 | inactive: 2.35%
Cc1ccc(C(=O)NCC2(N3CCCCC3)CCCCC2)o1 | inactive: -1.25%
CCC(CO)(C(=O)OC1CN2CCC1CC2)c1ccccc1 (stereo unspecified) | inactive: -2.42%
COc1cc(OC)cc(C(=O)NCC2(N3CCOCC3)CCCCC2)c1 | inactive: 1.67%
COc1cccc(C(=O)N(c2cc(C)cc(C)c2)C2CCN(C(=O)OC(C)(C)C)CC2)c1 | inactive: 5.88%
CCCOc1ccc(C)cc1CN(CCCl)CCCl | inactive: 1.57%
CN1CCC(Nc2ccc(Cl)cc2)CC1 | inactive: 0.12%
CN1CCC(Nc2ccc(F)c(Cl)c2)CC1 | inactive: 4.29%
CCOc1ncccc1C(=O)NCC1(N2CCOCC2)CCCCC1 | inactive: -1.34%
CCCOc1ccc(C(=O)NCC2(N(C)C)CCCCC2)cc1 | inactive: 2.77%
O=C(O)C1(Nc2ccccc2)CCN(Cc2ccccc2)CC1 | inactive: -2.18%
CC(C)(C)OC(=O)N1CCC(Nc2ccccc2)CC1 | inactive: 1.33%
N/C(=N\O)c1c(N)no[n+]1[O-] | inactive: -0.26%
CCOC(=O)N1CCC(Nc2ccc(C)cc2)CC1 | inactive: 1.43%
O=C(OC1CN2CCC1CC2)C1c2ccccc2C=Cc2ccccc21 (stereo unspecified) | inactive: 1.46%
CCc1cc(C(=O)NCC2(N3CCCCC3)CCCCC2)sc1C | inactive: -1.88%
O=C(NCC1(N2CCOCC2)CCCCC1)c1cc(Br)ccc1Cl | inactive: 2.56%

SMILES | inhibition
COc1ccc(C(=O)NCC2(N3CCOCC3)CCCCC2)cc1OC | inactive: 2.42%
CCCN1CCC(Nc2cc(OC)cc(OC)c2)CC1 | inactive: 0.2%
c1ccc(CN2CCC(Nc3ccccc3)CC2)cc1 | inactive: -1.25%
CN(C)C1(CNC(=O)c2cccc(C#N)c2)CCCCC1 | inactive: -1.67%
CC(C)(C)OC(=O)N1CCC(N(C(=O)c2ccccc2)c2ccc(Cl)cc2)CC1 | inactive: 0.08%
N#Cc1ccc(C(=O)NCC2(N3CCCCC3)CCCCC2)cc1 | inactive: 0.22%
O=C(NCC1(N2CCCCC2)CCCCC1)c1cccc(C(F)(F)F)c1 | inactive: 0.33%
CN1CCN(CCOC(=O)C(O)(c2ccccc2)c2ccccc2)CC1 | inactive: 2.22%
COc1ccc(NC2CCN(C(=O)OC(C)(C)C)CC2)cc1 | inactive: -2.11%
COc1cc(C(=O)NCC2(N3CCCCC3)CCCCC2)ccc1OC(F)F | inactive: 1.14%
O=C(NCC1(N2CCOCC2)CCCCC1)c1cc(=O)[nH]c2ccccc12 | inactive: -6.58%
O=C(NCC1(N2CCCCC2)CCCCC1)c1ccc(OC(F)F)cc1 | inactive: 2.57%
O=C(NCC1(N2CCCCC2)CCCCC1)c1cccc([N+](=O)[O-])c1 | inactive: -2.23%
N#CC1(Nc2ccccc2)CCN(CCc2ccccc2)CC1 | inactive: 2.39%
CCN1CCC(Nc2ccc(Cl)cc2)CC1 | inactive: -1.98%
O=C(NCC1(N2CCCCC2)CCCCC1)c1cncc(Br)c1 | inactive: -1.94%
CN1CCC(Nc2cccc(F)c2)CC1 | inactive: 2.16%
CN(C)c1cccc(C(=O)NCC2(N3CCCCC3)CCCCC2)c1 | inactive: 0.8%
COc1ccc(CN(CCCl)CCCl)cc1Cl | inactive: 2.3%
CC(C)c1ccc(NC2CCN(C(=O)OC(C)(C)C)CC2)cc1 | inactive: -0.28%
COc1cc(OC)c(C(=O)NCC2(N(C)C)CCCCC2)cc1OC | inactive: 1.53%

SMILES | inhibition
O=C(NCC1(N2CCOCC2)CCCCC1)c1cc2ccccc2o1 | inactive: 3.03%
Cc1cc(C)cc(N(C(=O)c2ccccc2)C2CCN(C(=O)OC(C)(C)C)CC2)c1 | inactive: 2.66%
O=C(NCC1(N2CCCCC2)CCCCC1)c1ccc(Cl)nc1 | inactive: -0.4%
CCOC(=O)N1CCC(Nc2ccc(OC)cc2)CC1 | inactive: 2.34%
COc1ccc(Cl)cc1C(=O)NCC1(N2CCOCC2)CCCCC1 | inactive: 1.74%
O=C(OC1CN2CCC1CC2)C1c2ccccc2Oc2ccccc21 (stereo unspecified) | inactive: 3.74%
O=C(NCC1(N2CCCCC2)CCCCC1)c1ccc(Cl)s1 | inactive: 1.4%
N#CC1(Nc2ccccc2)CCN(Cc2ccccc2)CC1 | inactive: -1.77%
O=C(NCC1(N2CCCCC2)CCCCC1)c1cccs1 | inactive: -1.73%
O=C(NCC1(N2CCCCC2)CCCCC1)c1ccc(=O)[nH]c1 | inactive: 1.6%
COc1ccc(C(=O)NCC2(N3CCCCC3)CCCCC2)c(OC)c1OC | inactive: 2.64%
CC(C)(C)OC(=O)N1CCC(N(C(=O)c2ccccc2)c2ccc(F)cc2)CC1 | inactive: 1.77%
COc1ccc(C(=O)NCC2(N3CCCCC3)CCCCC2)cc1 | inactive: 1.33%
CSc1ccccc1C(=O)NCC1(N2CCCCC2)CCCCC1 | inactive: 0.49%
Cc1ccc(OCC(C)C)c(CN(CCCl)CCCl)c1 | inactive: -0.83%
CCOC(=O)N1CCC(Nc2cccc(C)c2)CC1 | inactive: 1.41%
CCOc1ccc(C)cc1CN(CCCl)CCCl | inactive: 2.67%
COc1ccc(NC2CCN(CCc3ccccc3)CC2)c(OC)c1 | inactive: 2.7%
O=C(NCC1(N2CCCCC2)CCCCC1)c1ccc(F)cc1 | inactive: 1.1%
